Assay results reported in EP1682577B1, “CELL-BASED ASSAYS EMPLOYING VOLTAGE AND CALCIUM DYES” (priority 2003, dated 2005).

Amino acid sequences for entries named in this document (tags omitted). Residues count along the entry.
UniProt O60894, 27-148, species assumed: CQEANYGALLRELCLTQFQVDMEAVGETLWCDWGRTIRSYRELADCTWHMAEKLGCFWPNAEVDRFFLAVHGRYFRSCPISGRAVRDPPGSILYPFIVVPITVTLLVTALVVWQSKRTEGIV
UniProt Q16602, 23-461, species assumed: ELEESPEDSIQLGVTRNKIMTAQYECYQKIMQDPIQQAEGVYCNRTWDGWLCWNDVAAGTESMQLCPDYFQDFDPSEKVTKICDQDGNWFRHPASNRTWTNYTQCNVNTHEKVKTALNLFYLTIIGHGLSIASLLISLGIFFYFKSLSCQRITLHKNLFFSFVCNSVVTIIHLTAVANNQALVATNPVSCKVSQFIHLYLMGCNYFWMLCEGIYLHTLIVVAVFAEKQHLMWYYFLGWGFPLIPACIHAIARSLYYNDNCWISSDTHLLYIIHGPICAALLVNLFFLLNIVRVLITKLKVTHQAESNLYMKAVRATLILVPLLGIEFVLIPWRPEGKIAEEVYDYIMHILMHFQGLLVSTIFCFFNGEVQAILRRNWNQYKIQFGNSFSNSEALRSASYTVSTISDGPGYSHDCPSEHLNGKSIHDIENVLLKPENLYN

Target: CALCRL (Homo sapiens, UniProt O60894+Q16602)
Test: Quencher dye screening, CNG channel cell response: hCGRPb on CALCRL
Assay type: cell-based
Settings: cell line ASC0156

- EC50 (MDC dye): 18 pM
- EC50 (dye NY & H30602): 16 pM
Structure (SMILES): CSCC[C@H](NC(=O)CNC(=O)CNC(=O)[C@H](CO)NC(=O)[C@H](CCCNC(=N)N)NC(=O)[C@H](CO)NC(=O)[C@H](CC(C)C)NC(=O)[C@H](CC(C)C)NC(=O)CNC(=O)[C@H](C)NC(=O)[C@H](CC(C)C)NC(=O)[C@H](CCCNC(=N)N)NC(=O)[C@H](Cc1c[nH]cn1)NC(=O)[C@@H](NC(=O)[C@@H](NC(=O)[C@@H]1CSSC[C@H](NC(=O)[C@H](C)N)C(=O)N[C@@H](CC(N)=O)C(=O)N[C@@H]([C@@H](C)O)C(=O)N[C@@H](C)C(=O)N[C@@H]([C@@H](C)O)C(=O)N1)C(C)C)[C@@H](C)O)C(=O)N[C@H](C(=O)N[C@@H](CCCCN)C(=O)N[C@@H](CO)C(=O)N[C@@H](CC(N)=O)C(=O)N[C@@H](Cc1ccccc1)C(=O)N[C@H](C(=O)N1CCC[C@H]1C(=O)N[C@H](C(=O)N[C@@H](CC(N)=O)C(=O)N[C@H](C(=O)NCC(=O)N[C@@H](CO)C(=O)N[C@@H](CCCCN)C(=O)N[C@@H](C)C(=O)N[C@@H](Cc1ccccc1)C(N)=O)C(C)C)[C@@H](C)O)C(C)C)C(C)C [hCGRPb]
